The record followed here is ChEMBL document CHEMBL4627399, “Synthesis and Structure-Activity Relationships of 5'-Aryl-14-alkoxypyridomorphinans: Identification of a μ Opioid Receptor Agonist/δ Opioid Receptor Antagonist Ligand with Systemic Antinociceptive Activity and Diminished Opioid Side Effects” (J Med Chem, 2020).

The subject of this assay is Mus musculus. Put plainly: Antinociceptive activity in CD-1 mouse assessed as total time above 30% maximum possible effect of antinociception at 10 nmol, icv measured up to 5 hrs post dose by warm water tail-flick assay. For orientation: Hot-plate and tail-flick tests time the reaction to a heat stimulus.

Regarding `COc1ccc(-c2cnc3c(c2)C[C@@]2(OCCCc4ccccc4)[C@H]4Cc5ccc(O)c6c5[C@@]2(CCN4CC2CC2)[C@H]3O6)cc1`, the Time lay in the range of 15 to 300 min.
